In assay [1] the target is T1, Gamma-aminobutyric acid receptor subunit alpha-5 (Homo sapiens) (UniProt P31644).
T1 sequence (whole entry): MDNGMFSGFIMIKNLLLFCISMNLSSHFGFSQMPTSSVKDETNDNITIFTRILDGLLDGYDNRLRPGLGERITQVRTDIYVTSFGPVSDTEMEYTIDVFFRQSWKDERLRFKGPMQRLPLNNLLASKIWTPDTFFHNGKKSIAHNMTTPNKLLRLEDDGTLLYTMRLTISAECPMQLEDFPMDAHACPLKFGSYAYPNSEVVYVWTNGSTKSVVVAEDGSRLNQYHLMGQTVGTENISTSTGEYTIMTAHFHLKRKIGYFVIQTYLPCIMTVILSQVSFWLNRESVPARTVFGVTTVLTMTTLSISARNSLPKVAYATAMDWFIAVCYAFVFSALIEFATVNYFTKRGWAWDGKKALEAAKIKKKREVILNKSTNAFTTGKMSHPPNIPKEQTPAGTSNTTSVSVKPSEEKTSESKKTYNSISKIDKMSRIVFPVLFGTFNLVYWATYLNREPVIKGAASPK
The experiment in a line: Binding affinity to GABA-A alpha5 (unknown origin) assessed as reduction in DMCM induced current relative to control.

The target in assay [2] is T1, Gamma-aminobutyric acid receptor subunit alpha-5 (Homo sapiens). The experiment in a line: Binding affinity to GABA-A alpha5 (unknown origin) assessed as reduction in DMCM induced current relative to DMCM.
For assay [3], the target named is T2, Gamma-aminobutyric acid receptor subunit alpha-1 (Homo sapiens) (UniProt P14867).
T2 sequence (whole entry): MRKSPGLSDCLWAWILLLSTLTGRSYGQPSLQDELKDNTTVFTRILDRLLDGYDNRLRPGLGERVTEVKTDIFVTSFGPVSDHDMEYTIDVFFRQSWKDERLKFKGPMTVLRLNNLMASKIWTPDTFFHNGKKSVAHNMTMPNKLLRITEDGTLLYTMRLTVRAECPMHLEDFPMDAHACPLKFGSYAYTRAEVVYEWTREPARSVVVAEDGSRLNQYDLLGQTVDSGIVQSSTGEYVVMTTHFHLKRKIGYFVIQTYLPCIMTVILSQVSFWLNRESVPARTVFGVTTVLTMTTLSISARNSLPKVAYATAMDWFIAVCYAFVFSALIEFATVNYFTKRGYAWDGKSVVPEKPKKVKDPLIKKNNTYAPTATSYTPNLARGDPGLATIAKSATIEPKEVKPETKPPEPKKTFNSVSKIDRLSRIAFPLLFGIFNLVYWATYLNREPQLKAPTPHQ
The experiment in a line: Negative allosteric modulation of GABA-A alpha1 (unknown origin) assessed as reduction in DMCM induced current relative to DMCM.

The target of assay [4] is T3, Gamma-aminobutyric acid receptor subunit alpha-2 (Homo sapiens) (UniProt P47869).
T3 sequence (whole entry): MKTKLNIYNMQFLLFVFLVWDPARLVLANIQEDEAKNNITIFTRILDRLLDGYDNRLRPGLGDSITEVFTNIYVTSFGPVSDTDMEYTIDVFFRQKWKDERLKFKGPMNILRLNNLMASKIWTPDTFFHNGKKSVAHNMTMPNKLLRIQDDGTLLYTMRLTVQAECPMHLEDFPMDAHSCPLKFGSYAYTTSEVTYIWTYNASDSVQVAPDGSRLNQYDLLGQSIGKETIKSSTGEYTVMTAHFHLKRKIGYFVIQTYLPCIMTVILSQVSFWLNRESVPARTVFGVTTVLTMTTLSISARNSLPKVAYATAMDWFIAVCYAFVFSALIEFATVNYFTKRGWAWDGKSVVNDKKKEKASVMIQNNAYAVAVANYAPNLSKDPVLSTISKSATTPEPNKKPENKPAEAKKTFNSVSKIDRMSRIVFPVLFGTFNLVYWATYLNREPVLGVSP
The experiment in a line: Binding affinity to GABA-A alpha2 (unknown origin) assessed as reduction in DMCM induced current relative to DMCM.

Assay [5] concerns the target T4, Gamma-aminobutyric acid receptor subunit alpha-3 (Homo sapiens) (UniProt P34903).
T4 sequence (whole entry): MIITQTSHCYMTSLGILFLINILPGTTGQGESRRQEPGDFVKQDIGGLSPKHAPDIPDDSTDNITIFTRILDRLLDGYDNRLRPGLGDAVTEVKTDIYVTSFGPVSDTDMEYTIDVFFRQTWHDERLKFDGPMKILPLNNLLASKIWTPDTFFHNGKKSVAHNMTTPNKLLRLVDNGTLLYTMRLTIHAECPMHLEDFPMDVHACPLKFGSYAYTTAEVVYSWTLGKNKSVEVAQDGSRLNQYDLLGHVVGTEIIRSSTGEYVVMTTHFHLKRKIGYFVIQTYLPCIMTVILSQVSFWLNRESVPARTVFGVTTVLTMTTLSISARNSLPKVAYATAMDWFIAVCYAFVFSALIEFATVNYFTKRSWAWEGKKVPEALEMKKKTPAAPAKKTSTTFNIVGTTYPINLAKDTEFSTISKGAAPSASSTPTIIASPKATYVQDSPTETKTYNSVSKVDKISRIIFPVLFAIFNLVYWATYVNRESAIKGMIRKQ
As to the kind of experiment: Binding affinity to GABA-A alpha3 (unknown origin) assessed as reduction in DMCM induced current relative to DMCM.

Assay [6] has as its target T5, GABA-A receptor; alpha-1/beta-3/gamma-2 (Homo sapiens, UniProt P14867+P18507+P28472).
T5 sequence (P14867 whole entry): T2 sequence (whole entry)
T5 sequence (P18507 whole entry): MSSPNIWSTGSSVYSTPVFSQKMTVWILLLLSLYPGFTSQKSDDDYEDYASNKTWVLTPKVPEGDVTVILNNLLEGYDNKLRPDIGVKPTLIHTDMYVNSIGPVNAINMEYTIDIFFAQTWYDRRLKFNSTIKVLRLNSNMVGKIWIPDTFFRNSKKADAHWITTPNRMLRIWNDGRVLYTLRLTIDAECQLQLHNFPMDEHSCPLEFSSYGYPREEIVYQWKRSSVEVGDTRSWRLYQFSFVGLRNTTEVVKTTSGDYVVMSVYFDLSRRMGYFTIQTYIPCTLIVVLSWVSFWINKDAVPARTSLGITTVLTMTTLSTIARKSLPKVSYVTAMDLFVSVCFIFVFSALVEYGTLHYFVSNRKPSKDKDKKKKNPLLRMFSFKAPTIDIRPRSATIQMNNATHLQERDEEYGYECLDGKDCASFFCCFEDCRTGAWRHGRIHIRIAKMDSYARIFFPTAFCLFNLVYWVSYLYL
T5 sequence (P28472 whole entry): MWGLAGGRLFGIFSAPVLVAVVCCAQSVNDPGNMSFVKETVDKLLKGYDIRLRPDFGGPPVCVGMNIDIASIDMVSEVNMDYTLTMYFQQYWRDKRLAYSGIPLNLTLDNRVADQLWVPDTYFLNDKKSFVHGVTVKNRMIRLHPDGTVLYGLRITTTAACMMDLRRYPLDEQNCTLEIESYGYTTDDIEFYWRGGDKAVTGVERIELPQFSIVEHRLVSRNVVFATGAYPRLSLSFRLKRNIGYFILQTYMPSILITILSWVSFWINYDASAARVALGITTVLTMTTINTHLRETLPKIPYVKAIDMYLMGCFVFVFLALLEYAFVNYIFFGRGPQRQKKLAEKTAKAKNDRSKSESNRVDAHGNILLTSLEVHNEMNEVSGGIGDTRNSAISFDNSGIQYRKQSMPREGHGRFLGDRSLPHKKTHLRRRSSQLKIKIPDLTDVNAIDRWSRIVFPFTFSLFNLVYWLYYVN
The experiment in a line: Displacement of [3H]-flunitrazepam from human GABAA alpha1beta3gamma2 expressed in HEK293T cells by liquid scintillation counting method. Format: cell-based.

Assay [7] has as its target T6, GABA-A receptor; alpha-5/beta-3/gamma-2 (Homo sapiens, UniProt P18507+P28472+P31644).
T6 sequence (P18507 whole entry): T5 sequence (P18507 whole entry)
T6 sequence (P28472 whole entry): T5 sequence (P28472 whole entry)
T6 sequence (P31644 whole entry): T1 sequence (whole entry)
As to the kind of experiment: Displacement of [3H]-flunitrazepam from human GABAA alpha5beta3gamma2 expressed in HEK293T cells by liquid scintillation counting method. Format: cell-based. A general note: Loss of bound radioactivity is the signal in a displacement assay; it reports binding, not function.

Assay [8] concerns the target T7, GABA-A receptor; alpha-3/beta-3/gamma-2 (Homo sapiens, UniProt P18507+P28472+P34903).
T7 sequence (P18507 whole entry): T5 sequence (P18507 whole entry)
T7 sequence (P28472 whole entry): T5 sequence (P28472 whole entry)
T7 sequence (P34903 whole entry): T4 sequence (whole entry)
The experiment in a line: Displacement of [3H]-flunitrazepam from human GABAA alpha3beta3gamma2 expressed in HEK293T cells by liquid scintillation counting method. Format: cell-based.

Efficacy and Ki data for three molecules are collected here from ChEMBL document CHEMBL4402545, “Subtype Selective γ-Aminobutyric Acid Type A Receptor (GABAAR) Modulators Acting at the Benzodiazepine Binding Site: An Update” (J Med Chem, 2020).

As a reminder, the Ki is a measure of affinity in units of concentration, obtained from inhibition or displacement.

Take `Cc1c(F)c(Nc2ccc(-c3cn(C)cn3)cn2)cc2c1ncn2CC1CC1`: in assay [1], the Efficacy was -44%.
On to `Cc1cc(-c2nncc3c(C(C)(C)C)c(OCc4ncnn4C)nn23)no1`, for which the Efficacy is -0.55 in assay [2], -0.16 in assay [3], 0.06 in assay [4] and -0.09 in assay [5].
For `C#Cc1ccc2c(c1)C(c1ccccc1F)=N[C@@H](C)c1c(C(=O)OCC)ncn1-2`, the values for the Ki in assay [6], in assay [7] and in assay [8] were 468 nM, 19 nM and 292 nM, respectively.
